Results taken from publication PMC7614775 (Nature chemical biology, 2022).

By UniProt entry, the sequences of proteins in these tests, tags left out.
UniProt P30519, whole entry: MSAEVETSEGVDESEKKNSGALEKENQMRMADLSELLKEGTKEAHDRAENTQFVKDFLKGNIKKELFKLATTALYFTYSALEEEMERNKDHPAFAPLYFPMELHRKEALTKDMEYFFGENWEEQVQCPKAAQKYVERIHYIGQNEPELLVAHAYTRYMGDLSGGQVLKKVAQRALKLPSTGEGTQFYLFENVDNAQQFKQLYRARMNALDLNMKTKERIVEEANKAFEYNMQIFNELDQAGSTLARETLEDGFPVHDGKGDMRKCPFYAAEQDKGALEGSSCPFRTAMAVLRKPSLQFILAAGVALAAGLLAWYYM

Target: HMOX2_C282 (Homo sapiens, UniProt P30519)
Assay: Untargeted cysteine MS-ABPP, human PBMCs treated in situ
Conditions: 1 µM

## CS(=O)(=O)N1CC[C@H](C#CC(=O)N2CCC[C@@H](c3ccc(Cl)c(Cl)c3)C2)C1 [VVD-118313]
  %Engagement: 92%
